In US9334278B2, “Pyrrolo[2,3-B]pyrazines as SYK inhibitors” (Hoffmann-La Roche Inc., priority 2012, dated 2016) one finds IC50 data, which are given here for 1 compound.

Molecules are shown by their SMILES.

For this assay, the target named is recombinant human SYK360-635 (Spleen Tyrosine Kinase) (Homo sapiens (Human), UniProt P43405). In words: SYK kinase assay (33P filtration, IC50 of SYK inhibition). To be noted: read-out: ENZYME_FILTRATION_IC50, SYK 0.5 nM, ATP 20 μM.

Turning to `Cc1nc2[nH]cc(C(=O)NC(C)(C)C)c2nc1Nc1cnn(C)c1` [Compound I-34, 3-Methyl-2-(1-methyl-1H-pyrazol-4-ylamino)-5H-pyrrolo[2,3-b]pyrazine-7-carboxylic acid tert-butylamide], the IC50 came to 1070 nM.
